# Legend:
# Protein sequences, listed by entry. Tags and fused reporters are not part of them. Residues count along the entry.
# UniProt P56726, 33-793 limits assumed: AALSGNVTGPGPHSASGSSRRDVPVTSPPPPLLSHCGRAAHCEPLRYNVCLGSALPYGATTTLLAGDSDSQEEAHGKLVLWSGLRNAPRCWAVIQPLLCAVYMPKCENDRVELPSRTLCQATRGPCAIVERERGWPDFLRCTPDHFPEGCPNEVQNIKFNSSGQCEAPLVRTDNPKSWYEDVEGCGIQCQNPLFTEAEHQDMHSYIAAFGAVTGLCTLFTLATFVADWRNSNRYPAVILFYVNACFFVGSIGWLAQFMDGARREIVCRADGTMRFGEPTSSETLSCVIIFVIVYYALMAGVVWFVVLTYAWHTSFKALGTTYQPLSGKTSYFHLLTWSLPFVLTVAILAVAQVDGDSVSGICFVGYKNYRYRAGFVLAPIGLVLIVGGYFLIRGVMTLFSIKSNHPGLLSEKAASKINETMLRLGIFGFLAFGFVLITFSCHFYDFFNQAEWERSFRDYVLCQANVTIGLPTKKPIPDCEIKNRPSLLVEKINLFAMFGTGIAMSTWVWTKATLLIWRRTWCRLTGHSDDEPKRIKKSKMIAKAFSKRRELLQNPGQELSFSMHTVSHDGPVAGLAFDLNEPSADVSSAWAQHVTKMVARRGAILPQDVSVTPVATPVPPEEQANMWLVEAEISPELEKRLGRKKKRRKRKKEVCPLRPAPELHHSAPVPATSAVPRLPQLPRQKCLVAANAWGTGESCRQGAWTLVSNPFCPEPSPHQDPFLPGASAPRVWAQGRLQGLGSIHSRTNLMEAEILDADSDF
# [1] = test system: Hh pathway in Shh-L2 cells; assay: Hh reporter assay in Shh-L2 cells; conditions: for reduction of activity relative to MS-0022: Shh-L2 cells; for IC50: read-out: IC50 (Shh-L2), pathway inhibition in Shh induced Shh-L2 cells, 48 hours treatment
# [2] = biological target: SMO (Mus musculus, UniProt P56726); assay: BODIPY-cyclopamine competition assay; format: binding; conditions: read-out: IC50 (nM, BODIPY-cyclopamine inhib.); competition with BODIPY-cyclopamine
# Method: BODIPY assay was performed to determine competition with cyclopamine as described previously, [66].
smiles,measurement,setting,value
Cc1cccn2cc(-c3ccc(NC(=O)c4ccccc4F)cc3)nc12,reduction of activity relative to MS-0022,[1],1.6 fold
same,IC50,[1],161 nM
same,IC50,[2],93 nM
COc1ccc(C(=O)Nc2ccc(-c3cn4ccccc4n3)cc2)cc1,reduction of activity relative to MS-0022,[1],1.8 fold
same,IC50,[1],181 nM
same,IC50,[2],287 nM
